These results are taken from paper PMC7000199, “Indirubin derivatives are potent and selective anti-Trypanosoma cruzi agents” (Virulence, 2018).

In the series the test system is murine macrophages J774.1. Briefly: Cytotoxicity to mammalian cells (Alamar Blue). It is filed as cell-based, mouse. The procedure:
Mouse macrophages (J774.1 cell line) were seeded into 96-well plates at a cell number 1 × 10^4 cells/well in DMEM medium supplemented with 10 % of FBS and incubated for 24 h at 37°C and 5% CO2. Samples were then added at eight concentrations (ranging from 0.078 to 10 µM) in triplicate, and incubated for 72 h, followed by the addition of 20 µL/well of Alamar Blue (Invitrogen; Catalog number: DAL1025). Colorimetric readings were performed 24 h later at 570 and 600 nm. CC50 values were calculated using data-points gathered from three independent experiments. Benznidazole was tested in concentrations ranging from 0.78 to 100 µM.
To determine the cytotoxicity concentration 50% of J774.1 (CC50) and the effective concentration 50% (EC50) of the trypomastigotes and amastigotes forms of T. cruzi, we used nonlinear regression. The selectivity index (SI) was defined as the ratio of CC50 by EC50 (trypomastigotes). The one-way ANOVA followed by Bonferroni’s multiple comparison test was used to determine the statistical significance of the group comparisons in the in vitro infection and in vivo studies. Results were considered statistically significant when P < 0.05. All analyzes were performed using Graph Pad Prism version 5.01
(In general: Resazurin is reduced to fluorescent resorufin, in cell work by metabolically active cells.)

Broadly, the CC50 is the concentration at which the toxic effect on the cells reaches its halfway point. Read a low CC50 as greater toxicity to the cells. On to 3ʹpiperazine-6-BIO [Compound 11], for which the “cytotoxicity against murine macrophages J774.1 (in words)” value was “lower cytotoxicity”. For the same substance, it took 6.25 µM to reach half-maximal cytotoxicity (J774.1 cell viability, 72 h post-treatment) (CC50).
